The text below walks through data of patent publication US4748187A, “Opioid peptide-degrading enzyme inhibitor with a germanium compound” (Asai Germanium Research Institute, priority 1983, dated 1988).

A short description of this series: Solubility in water and organic solvent. The class given is physicochemical.

As to “carboxyethylgermanium sesquioxide (GeCH2 CH2 COOH)2 O3”, the “solubility in organic solvent” value (organic solvent miscible with water, such as acetone or alcohol) is given as “insoluble in an organic solvent at all”. The solubility in water entry (water) was “slightly soluble in water”.
